# According to patent US20090022714A1, “Combination methods of inhibiting tumor growth with a vascular endothelial growth factor receptor antagonist” (ImClone Systems, Inc., priority 2001, published 2009):
# Tests used:
# [1] = test system: HL60 cells; test: Leukemia migration assay, HL60; assay type: cell-based, human; conditions: Fab 5 Φg/ml
# Method: (§1) HL60 and HEL cells were washed three times with serum-free plain RPMI 1640 medium and suspended in the medium at 1×10^6/ml. Aliquots of 100 Φl cell suspension were added to either 3-Φm-pore transwell inserts for HL60 cells, or 8-Φm-pore transwell inserts for HEL cells (Costar®, Corning Incorporated, Corning, N.Y.) and incubated with the anti-KDR (VEGFR-2) Fab proteins (5 Φg/ml) for 30 min at 37° C. […] The migration was carried out at 37° C., 5% CO2 for 16-18 h for HL60 cells, or for 4 h for HEL cells. Migrated cells were collected from the lower compartments and counted with a Coulter counter (Model Z1, Coulter Electronics Ltd., Luton, England).
# [2] = test system: HEL cells; test: Leukemia migration assay, HEL; assay type: cell-based, human; conditions: Fab 5 Φg/ml
# Method: as §1
substance,measurement,setting,value
"Fab fragment of C225: Fab fragment of C225, an antibody directed against EGF receptor; control",inhibition of VEGF-stimulated migration of HL60 cells,[1],did not show significant inhibitory effect
same,inhibition of VEGF-stimulated migration of HEL cells,[2],did not show significant inhibitory effect
